Data published in US20220273926A1, “DRUG DELIVERY USING MICRONEEDLE ARRAYS” (BOARD OF REGENTS OF THE UNIVERSITY OF NEBRASKA, priority 2019, published 2022).
Entries after “also recorded” stand apart in the source; their conditions may differ.

Assays:
[1] = test system: full-thickness skin wounds of diabetic (Lepr^db) mice; settings: 20-day procedure; all study groups, no significant difference between groups
Source text: On the day of surgery, mice received a full thickness (1×1 cm^2) skin wound on their dorsum. Mice with the full thickness (1×1 cm^2) wound on their dorsum were kept untreated for 5 days to allow eschar formation. Animals received treatment via three different delivery methods on days 5 and 7 post-surgery. […] Similar to in vitro experiments, to minimize the potential injury upon the delivery of therapeutics intradermally using LJI, a layer of agarose was placed between the wound and the nozzle.
Small Animal studies: Murine animal procedures were approved by the Institutional Animal Care and Use Committee (IACUC) of the University of Nebraska, Lincoln. Six to seven weeks old B6.BKS(D)-Lepr^db/J mice were obtained from the Jackson Laboratory (Bar Harbor, Me.). Since this mouse strain had congenic obesity, the animals were put on a special food diet. […] On day 0 of the study, 5% isoflurane was provided via a nose cone for anesthetization of animals and 3% isoflurane was used for maintaining sedation. The hair on the dorsal area was shaved, the skin was sterilized, and a full-thickness skin cut of 1 cm×1 cm was created. Buprenorphine SR was administered for pain relief at the time of surgery.
Animals received treatments on day 5 and day 7 post-surgery. […]

[2] = test system: full-thickness wounds on the dorsum of Yorkshire pigs; settings: pig, in vivo
[3] = Drug adsorption to the bandage: solution perfused through the MNAs; type: physicochemical; settings: perfusion through bandage and MNAs; BSA 54 ng/mL, cefazolin 16 μg/mL
[4] = Release profile from hydrogel-filled MNAs; type: physicochemical
Protocol: Release Profile Experimentation: Three different concentrations of hydrogel were studied for evaluating release kinetics of BSA as protein and Rhodamine B as neutral charge molecule from alginate and PEGDA hydrogels. BSA solution (ThermoFisher Scientific, Micro BCA™ Protein Assay Kit) mixed with three different concentrations of alginate gel (1.2%, 1.8%, and 2.5% (w/v)). This stock solution with 2000 μg/mL of BSA diluted with alginate solutions to reach 15 μg/mL final concentration of BSA. MNAs were filled with this BSA-containing alginate solution and Calcium Chloride (CaCl2) used for crosslinking following this protocol: first placing MNAs in 3% (w/v) agarose gel containing 2% (v/v) CaCl2 for few minutes and then pipetting additional 2% (v/v) CaCl2 over the tops to ensure complete crosslinking.
To perform a 3-day long release study, each needle array was placed in 0.5 mL of PBS. Samples were taken from solution at each time point over the course of 72 hrs and were stored in micro vials at room temperature over the duration of the release. […] Once reagents and samples were mixed, plates were incubated at 37° C. for an hour, and a plate reader (BioTech) used to read the absorption. Absorption values from the plate reader converted to concentrations using a calibration curve. […]

## vascular endothelial growth factor [VEGF]
[1]
  animals' weight increase: 16%
[2]
  inflammatory response (CD3 staining): did not generate a significant inflammatory response

## bovine serum albumin [BSA]
[3]
  temporal changes in the drug concentration within the perfused solution: not statistically significant; also recorded: insignificant change in concentration
[4]; PEGDA 23% (v/v), 3-day study
  release pattern from PEGDA-filled MNAs: the same release pattern as alginate
[4]; alginate, three concentrations, 3 mm and 2 mm MNAs, 72 hrs in PBS
  release profile from alginate-filled MNAs: curved burst release over the first 6 hours, with slower, more linear release over the next 3 days
